Assay results published in publication PMC4896931, “The discovery of 2-substituted phenol quinazolines as potent RET kinase inhibitors with improved KDR selectivity” (European Journal of Medicinal Chemistry, 2016).

Protein sequences, listed by entry. Tags and fused reporters are not part of them. Residues count along the entry.
UniProt P07949, 29-1114: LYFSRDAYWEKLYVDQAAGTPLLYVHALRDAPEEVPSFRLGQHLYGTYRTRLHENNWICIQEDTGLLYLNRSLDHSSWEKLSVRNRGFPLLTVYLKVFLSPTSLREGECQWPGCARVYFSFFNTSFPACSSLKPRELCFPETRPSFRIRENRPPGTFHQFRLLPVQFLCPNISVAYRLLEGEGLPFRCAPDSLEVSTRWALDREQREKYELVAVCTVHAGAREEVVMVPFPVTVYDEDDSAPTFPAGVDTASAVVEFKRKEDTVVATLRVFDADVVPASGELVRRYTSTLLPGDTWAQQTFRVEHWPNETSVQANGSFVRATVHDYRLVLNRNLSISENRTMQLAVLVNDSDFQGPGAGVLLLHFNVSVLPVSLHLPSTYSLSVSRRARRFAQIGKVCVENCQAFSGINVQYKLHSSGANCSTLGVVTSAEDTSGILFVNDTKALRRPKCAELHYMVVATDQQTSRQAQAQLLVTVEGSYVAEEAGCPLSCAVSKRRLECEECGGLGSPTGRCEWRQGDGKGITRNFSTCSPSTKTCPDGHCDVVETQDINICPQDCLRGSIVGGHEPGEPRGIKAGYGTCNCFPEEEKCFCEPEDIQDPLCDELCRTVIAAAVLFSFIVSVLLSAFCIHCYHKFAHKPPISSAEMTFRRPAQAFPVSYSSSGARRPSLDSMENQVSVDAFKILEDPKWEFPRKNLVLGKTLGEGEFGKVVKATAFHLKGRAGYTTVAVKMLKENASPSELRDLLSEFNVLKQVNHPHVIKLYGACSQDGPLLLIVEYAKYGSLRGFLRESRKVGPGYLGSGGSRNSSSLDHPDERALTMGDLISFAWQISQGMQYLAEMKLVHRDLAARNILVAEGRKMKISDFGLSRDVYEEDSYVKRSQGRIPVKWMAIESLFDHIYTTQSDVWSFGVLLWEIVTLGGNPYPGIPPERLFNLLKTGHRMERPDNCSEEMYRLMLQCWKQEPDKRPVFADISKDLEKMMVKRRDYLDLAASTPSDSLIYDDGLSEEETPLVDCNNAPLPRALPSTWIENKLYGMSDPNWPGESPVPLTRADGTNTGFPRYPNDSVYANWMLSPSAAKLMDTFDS
UniProt P35968, 20-1356: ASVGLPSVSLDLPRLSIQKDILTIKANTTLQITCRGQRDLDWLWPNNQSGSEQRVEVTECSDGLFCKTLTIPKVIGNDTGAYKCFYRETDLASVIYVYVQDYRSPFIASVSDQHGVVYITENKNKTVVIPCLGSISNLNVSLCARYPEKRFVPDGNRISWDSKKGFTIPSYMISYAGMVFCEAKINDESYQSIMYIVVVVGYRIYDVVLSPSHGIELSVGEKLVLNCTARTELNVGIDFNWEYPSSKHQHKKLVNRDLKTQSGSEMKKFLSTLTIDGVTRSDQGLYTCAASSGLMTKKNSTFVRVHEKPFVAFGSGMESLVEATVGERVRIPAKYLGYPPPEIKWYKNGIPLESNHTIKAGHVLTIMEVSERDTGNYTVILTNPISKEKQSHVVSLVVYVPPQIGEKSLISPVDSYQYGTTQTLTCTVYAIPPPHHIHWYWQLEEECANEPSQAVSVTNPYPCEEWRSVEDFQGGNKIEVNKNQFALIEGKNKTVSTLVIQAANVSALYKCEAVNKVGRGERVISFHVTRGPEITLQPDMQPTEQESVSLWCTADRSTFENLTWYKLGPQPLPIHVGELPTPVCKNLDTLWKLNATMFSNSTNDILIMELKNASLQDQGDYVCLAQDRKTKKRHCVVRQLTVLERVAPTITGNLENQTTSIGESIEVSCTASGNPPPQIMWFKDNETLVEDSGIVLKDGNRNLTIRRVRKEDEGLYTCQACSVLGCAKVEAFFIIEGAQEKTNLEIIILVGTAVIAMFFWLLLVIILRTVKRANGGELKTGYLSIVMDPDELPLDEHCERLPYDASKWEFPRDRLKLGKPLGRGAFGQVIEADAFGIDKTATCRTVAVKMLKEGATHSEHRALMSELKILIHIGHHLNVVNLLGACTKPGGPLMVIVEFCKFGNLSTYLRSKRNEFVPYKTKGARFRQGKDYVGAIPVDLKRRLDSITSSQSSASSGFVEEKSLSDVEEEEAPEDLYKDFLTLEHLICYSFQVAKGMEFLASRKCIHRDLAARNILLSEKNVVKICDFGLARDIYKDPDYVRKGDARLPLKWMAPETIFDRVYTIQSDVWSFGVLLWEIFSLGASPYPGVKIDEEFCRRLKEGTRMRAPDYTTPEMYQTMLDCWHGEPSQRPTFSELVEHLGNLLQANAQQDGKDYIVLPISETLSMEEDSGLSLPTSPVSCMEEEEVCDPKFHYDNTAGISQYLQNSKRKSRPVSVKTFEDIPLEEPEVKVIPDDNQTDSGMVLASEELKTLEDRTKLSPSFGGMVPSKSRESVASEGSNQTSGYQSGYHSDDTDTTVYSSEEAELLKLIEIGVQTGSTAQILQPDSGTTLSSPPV

Key:
[1] = molecular target: T1, BaF3 cells expressing KIF5B-RET (Homo sapiens, UniProt P07949+P33176); assay: BaF3 cellular assay, RET-driven line (CellTiter-Glo viability); settings: for IC50: read-out: RET IC50; for Cell selectivity ratio: ratio KDR IC50 / RET IC50, BaF3 cellular data
T1 sequence (P33176+P07949 with tags, fused parts or gaps): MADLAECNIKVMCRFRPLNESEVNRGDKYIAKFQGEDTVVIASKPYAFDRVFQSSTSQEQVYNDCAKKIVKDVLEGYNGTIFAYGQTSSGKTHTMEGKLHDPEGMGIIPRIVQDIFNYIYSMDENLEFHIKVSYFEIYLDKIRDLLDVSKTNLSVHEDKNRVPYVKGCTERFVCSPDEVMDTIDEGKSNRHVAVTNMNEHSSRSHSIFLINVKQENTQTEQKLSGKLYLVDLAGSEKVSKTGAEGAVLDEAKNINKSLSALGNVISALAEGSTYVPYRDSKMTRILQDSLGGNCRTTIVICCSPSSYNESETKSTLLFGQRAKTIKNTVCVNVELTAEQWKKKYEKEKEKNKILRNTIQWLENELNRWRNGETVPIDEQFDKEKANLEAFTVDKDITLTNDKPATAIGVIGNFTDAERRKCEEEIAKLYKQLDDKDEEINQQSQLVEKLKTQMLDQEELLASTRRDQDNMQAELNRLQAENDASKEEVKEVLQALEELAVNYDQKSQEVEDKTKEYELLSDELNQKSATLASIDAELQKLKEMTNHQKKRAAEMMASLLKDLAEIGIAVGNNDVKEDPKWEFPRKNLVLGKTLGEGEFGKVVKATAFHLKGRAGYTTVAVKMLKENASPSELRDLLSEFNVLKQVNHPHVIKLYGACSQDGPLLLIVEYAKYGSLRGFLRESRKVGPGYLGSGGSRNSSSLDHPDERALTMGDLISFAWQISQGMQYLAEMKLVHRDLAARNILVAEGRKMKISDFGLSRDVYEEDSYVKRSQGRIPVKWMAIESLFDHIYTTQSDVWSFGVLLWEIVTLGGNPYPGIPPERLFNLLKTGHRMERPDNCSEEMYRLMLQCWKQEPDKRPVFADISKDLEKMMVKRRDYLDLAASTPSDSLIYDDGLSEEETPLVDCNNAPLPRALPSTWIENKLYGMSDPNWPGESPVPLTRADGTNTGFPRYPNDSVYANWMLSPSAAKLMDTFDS

RET = RET (Homo sapiens, UniProt P07949); assay: RET biochemical assay (CisBio HTRF kinEASE); settings: for Selectivity (biochemical, RET against KDR): ratio KDR IC50 / RET IC50, biochemical data; for Biochemical selectivity ratio: as repeated in Table 2 beside the cellular data
KDR = KDR (Homo sapiens, UniProt P35968)

Question: With `COc1cc2ncnc(Nc3c(F)ccc(O)c3Cl)c2cc1OC` [Compound 40, 2-Chloro-3-((6,7-dimethoxyquinazolin-4-yl)amino)-4-fluorophenol] as the compound, how does the IC50 [1] read?
Answer: 260 nM

Question: For `COc1cccc(Nc2ncnc3cc(OC)c(OC)cc23)c1` [Compound 9], which “Selectivity (biochemical, RET against KDR)” value (RET) is on record?
Answer: 4

Question: With `COc1cc2ncnc(Nc3cccc(O)c3OC)c2cc1OC` [Compound 15, 3-((6,7-Dimethoxyquinazolin-4-yl)amino)-2-methoxyphenol] as the compound, how does the “Selectivity (biochemical, RET against KDR)” value (RET) read?
Answer: ≥9

Question: With `COc1cc2ncnc(Nc3cc(O)c(F)cc3F)c2cc1OC` [Compound 28] as the compound, how does the Cell selectivity ratio [1] read?
Answer: 1

Question: And the Biochemical selectivity ratio (RET)?
Answer: 23

Question: What about the “Selectivity (biochemical, RET against KDR)” value (RET) of the same compound?
Answer: 23

Question: How did the Cell selectivity ratio [1] turn out when `COc1cc2ncnc(Nc3cc(O)c(C)cc3F)c2cc1OC` [Compound 30] was run?
Answer: <1

Question: And the Biochemical selectivity ratio (RET)?
Answer: 3

Question: What about the “Selectivity (biochemical, RET against KDR)” value (RET) of the same compound?
Answer: 3

Question: Which “Selectivity (biochemical, RET against KDR)” value (RET) does the source give for `COc1cc2ncnc(Nc3cccc(N)c3)c2cc1OC` [Compound 8] here?
Answer: 13

Question: With `COc1cc2ncnc(Nc3c(Cl)ccc(O)c3F)c2cc1OC` [Compound 34, 4-Chloro-3-((6,7-dimethoxyquinazolin-4-yl)amino)-2-fluorophenol] as the compound, how does the IC50 [1] read?
Answer: 270 nM

Question: And the IC50 (KDR)?
Answer: 230 nM

Question: With `COc1cc2ncnc(Nc3cccc(O)c3C(F)(F)F)c2cc1OC` [Compound 17, 3-((6,7-Dimethoxyquinazolin-4-yl)amino)-2-(trifluoromethyl)phenol] as the compound, how does the “Selectivity (biochemical, RET against KDR)” value (RET) read?
Answer: ≥2

Question: With `COc1cc2ncnc(Nc3c(Cl)ccc(O)c3Cl)c2cc1OC` [Compound 39, 2,4-Dichloro-3-((6,7-dimethoxyquinazolin-4-yl)amino)phenol] as the compound, how does the IC50 [1] read?
Answer: 2200 nM

Question: What does the source list for `COc1cc2ncnc(Oc3cccc(O)c3)c2cc1OC` [Compound 42, 3-((6,7-Dimethoxyquinazolin-4-yl)oxy)phenol]?
Answer: Cell selectivity ratio [1]: 1; Selectivity (biochemical, RET against KDR) (RET): 9

Question: How did the Cell selectivity ratio [1] turn out when `COc1cc2ncnc(Nc3cc(O)ccc3F)c2cc1OC` [Compound 25] was run?
Answer: 2

Question: And the Biochemical selectivity ratio (RET)?
Answer: 18

Question: What about the “Selectivity (biochemical, RET against KDR)” value (RET) of the same compound?
Answer: 18

Question: How did the Cell selectivity ratio [1] turn out when `COc1cc2ncnc(Nc3ccc(Cl)c(O)c3)c2cc1OC` [Compound 21] was run?
Answer: <1

Question: And the Biochemical selectivity ratio (RET)?
Answer: 6

Question: And the “Selectivity (biochemical, RET against KDR)” value (RET)?
Answer: 6

Question: `COc1cc2ncnc(Nc3c(Cl)ccc(O)c3C)c2cc1OC` [Compound 37, 4-Chloro-3-((6,7-dimethoxyquinazolin-4-yl)amino)-2-methylphenol] was tested. Which Cell selectivity ratio [1] did it give?
Answer: ≥3

Question: And the Biochemical selectivity ratio (RET)?
Answer: ≥83

Question: What about the “Selectivity (biochemical, RET against KDR)” value (RET) of the same compound?
Answer: ≥83

Question: `COc1cc2ncnc(Nc3ccc(C)c(O)c3)c2cc1OC` [Compound 20] was tested. Which Cell selectivity ratio [1] did it give?
Answer: <1

Question: What about the Biochemical selectivity ratio (RET) of the same compound?
Answer: 4

Question: What about the “Selectivity (biochemical, RET against KDR)” value (RET) of the same compound?
Answer: 4

Question: Which Cell selectivity ratio [1] does the source give for `COc1cc2ncnc(Nc3ccc(Br)cc3F)c2cc1OC` [Compound 4] here?
Answer: 2

Question: And the Biochemical selectivity ratio (RET)?
Answer: 5

Question: What about the “Selectivity (biochemical, RET against KDR)” value (RET) of the same compound?
Answer: 5

Question: For `COc1cc2ncnc(Nc3cccc(O)c3F)c2cc1OC` [Compound 14, 3-((6,7-Dimethoxyquinazolin-4-yl)amino)-2-fluorophenol], which IC50 [1] is on record?
Answer: 570 nM
